Data taken from article doi:10.1101/2023.01.27.525918 (bioRxiv, 2023).
Numbering of substitutions follows the chain as printed.

Key:
[1] = target: T1, ZUP1 C360A (catalytically inactive mutant of full length ZUP1) (human, UniProt Q96AP4 1-578, C360A); assay: cross-linking
T1 sequence: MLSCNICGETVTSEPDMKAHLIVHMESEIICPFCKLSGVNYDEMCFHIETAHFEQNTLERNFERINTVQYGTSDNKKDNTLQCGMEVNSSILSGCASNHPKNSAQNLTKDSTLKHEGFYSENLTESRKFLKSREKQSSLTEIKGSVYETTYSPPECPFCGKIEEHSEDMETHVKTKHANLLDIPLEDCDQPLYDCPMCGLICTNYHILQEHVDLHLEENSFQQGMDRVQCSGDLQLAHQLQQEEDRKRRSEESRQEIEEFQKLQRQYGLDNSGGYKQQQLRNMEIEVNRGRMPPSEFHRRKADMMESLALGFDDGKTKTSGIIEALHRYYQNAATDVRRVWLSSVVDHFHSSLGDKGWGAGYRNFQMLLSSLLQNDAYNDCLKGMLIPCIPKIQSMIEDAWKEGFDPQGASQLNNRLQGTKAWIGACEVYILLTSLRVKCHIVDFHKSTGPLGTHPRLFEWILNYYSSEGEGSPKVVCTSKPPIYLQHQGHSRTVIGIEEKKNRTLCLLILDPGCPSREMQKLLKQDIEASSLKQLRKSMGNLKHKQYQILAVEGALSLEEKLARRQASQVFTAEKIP

[2] = target: T2, Zinc finger-containing Ub peptidase 1 (ZUP1), full length, untagged (human, UniProt Q96AP4 1-578); assay: cross-linking
T2 sequence: T1 sequence with A360C

B1: RPA32, untagged recombinant (natural protein)
chain: MWNSGFESYGSSSYGGAGGYTQSPGGFGSPAPSQAEKKSRARAQHIVPCTISQLLSATLVDEVFRIGNVEISQVTIVGIIRHAEKAPTNIVYKIDDMTAAPMDVRQWVDTDDTSSENTVVPPETYVKVAGHLRSFQNKKSLVAFKIMPLEDMNEFTTHILEVINAHMVLSKANSQPSAGRAPISNPGMSEAGNFGGNSFMPANGLTVAQNQVLNLIKACPRPEGLNFQDLKNQLKHMSVSSIKQAVDFLSNEGHIYSTVDDDHFKSTDAE
Question: Does B1 bind [1]?
Answer: binds

Question: Does B1 bind [2]?
Answer: binds
